For 41 compounds, Ki results are on record in patent US7759499B2, “Compounds as inhibitors of hepatitis C virus NS3 serine protease” (Schering Corporation, priority 2004, dated 2010).

Chains of the proteins cited; added tags and fusions are not shown. Residues count along the entry.
UniProt P27958, 1027-1657: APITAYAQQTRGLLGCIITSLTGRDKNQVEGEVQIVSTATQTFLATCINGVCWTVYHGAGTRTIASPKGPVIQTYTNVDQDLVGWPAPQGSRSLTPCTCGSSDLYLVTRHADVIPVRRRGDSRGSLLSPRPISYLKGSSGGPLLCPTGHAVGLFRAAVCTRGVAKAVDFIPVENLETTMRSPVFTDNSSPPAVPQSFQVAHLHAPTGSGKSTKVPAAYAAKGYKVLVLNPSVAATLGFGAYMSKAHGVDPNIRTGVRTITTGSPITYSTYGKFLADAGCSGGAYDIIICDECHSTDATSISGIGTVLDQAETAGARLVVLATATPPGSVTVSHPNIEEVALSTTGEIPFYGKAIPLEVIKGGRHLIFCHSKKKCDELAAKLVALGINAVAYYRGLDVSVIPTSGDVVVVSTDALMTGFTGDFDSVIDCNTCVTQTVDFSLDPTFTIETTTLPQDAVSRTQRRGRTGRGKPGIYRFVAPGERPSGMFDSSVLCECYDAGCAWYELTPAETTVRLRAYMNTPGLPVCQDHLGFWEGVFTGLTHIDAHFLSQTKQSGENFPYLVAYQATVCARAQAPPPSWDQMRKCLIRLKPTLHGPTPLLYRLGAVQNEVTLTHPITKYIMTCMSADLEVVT
UniProt P27958, 1658-1711: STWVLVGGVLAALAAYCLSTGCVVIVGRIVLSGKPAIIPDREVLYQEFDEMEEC

In one test the target is Recombinant heterodimeric HCV NS3/NS4A protease (strain 1a) (Hepatitis C virus genotype 1a, UniProt P27958). Description: Spectrophotometric assay for HCV protease inhibitory activity. The class given is biochemical. The note with it: Table 1, range.
What is called Ki is a dissociation constant, usually derived from enzyme kinetics or from competition with a known ligand. As to `C=CCNC(=O)C(=O)C(CCCC)NC(=O)[C@@H]1[C@@H]2[C@H](CN1C(=O)[C@@H](NC(=O)N[C@H](CN(C)S(=O)(=O)N(C)C(=O)OC(C)(C)C)C(C)(C)C)C(C)(C)C)C2(C)C` (some centres unmarked) [Compound 10101], the Ki is at most 75 nM.
For `CNC(=O)C(=O)C(CCC(F)(F)F)NC(=O)[C@@H]1[C@@H]2[C@H](CN1C(=O)[C@@H](NC(=O)N[C@H](CN(C)S(=O)(=O)N(C)C)C(C)(C)C)C(C)(C)C)C2(C)C` (some centres unmarked) [Compound 10008], the Ki is at most 75 nM.
Turning to `C=CCNC(=O)C(=O)C(CC1CC1)NC(=O)[C@@H]1[C@@H]2[C@H](CN1C(=O)[C@@H](NC(=O)N[C@H](CN(C)S(=O)(=O)N(C)C(=O)OC(C)(C)C)C(C)(C)C)C(C)(C)C)C2(C)C` (some centres unmarked) [Compound 10089], the Ki was at most 75 nM.
On to `C=CCNC(=O)C(=O)C(CCCC)NC(=O)[C@@H]1[C@@H]2[C@H](CN1C(=O)[C@@H](NC(=O)N[C@H](CN(C)S(=O)(=O)N1CCCCC1)C(C)(C)C)C(C)(C)C)C2(C)C` (some centres unmarked) [Compound 10005], for which the Ki was at most 75 nM.
For the compound `C=CCNC(=O)C(=O)C(CCCC)NC(=O)[C@@H]1[C@@H]2[C@H](CN1C(=O)[C@@H](NC(=O)N[C@H](CN(C)S(=O)(=O)N(C)C)C(C)(C)C)C1Cc3ccccc3C1)C2(C)C` (some centres unmarked) [Compound 10058], the Ki was at most 75 nM.
As for `C#CCCC(NC(=O)[C@@H]1[C@@H]2[C@H](CN1C(=O)[C@@H](NC(=O)N[C@H](CN(C)S(=O)(=O)N1CCCC1)C(C)(C)C)C(C)(C)C)C2(C)C)C(=O)C(=O)NCC=C` (some centres unmarked) [Compound 10098], the Ki is at most 75 nM.
Take `C=CCNC(=O)C(=O)C(CCC)NC(=O)[C@@H]1[C@@H]2[C@H](CN1C(=O)[C@@H](NC(=O)N[C@H](CN(C)S(=O)(=O)N(C)C)C(C)(C)C)C1Cc3ccccc3C1)C2(C)C` (some centres unmarked) [Compound 10055]: the Ki is at most 75 nM.

The same test, now with this note: Table 2, range.
Turning to `C=CCNC(=O)C(=O)C(CCCC)NC(=O)[C@@H]1[C@@H]2[C@H](CN1C(=O)[C@@H](NC(=O)N[C@H](CN(CC1CC1)S(=O)(=O)c1cccs1)C(C)(C)C)C(C)(C)C)C2(C)C` (some centres unmarked) [Compound 11244], the Ki was at most 75 nM.
With `CN(CC1(NC(=O)N[C@H](C(=O)N2C[C@H]3[C@@H]([C@H]2C(=O)NC(CC2CC2)C(=O)C(N)=O)C3(C)C)C(C)(C)C)CCCCC1)S(=O)(=O)Cc1ccccc1` (some centres unmarked) [Compound 11008], the Ki was at most 75 nM.
For the compound `CCCCC(NC(=O)[C@@H]1[C@@H]2[C@H](CN1C(=O)[C@@H](NC(=O)N[C@H](CN(C)S(C)(=O)=O)C(C)(C)C)C1Cc3ccccc3C1)C2(C)C)C(=O)C(=O)NC` (some centres unmarked) [Compound 11211], the Ki is at most 75 nM.
In the case of `CC(C)(C)[C@H](NC(=O)NC1(Cc2ccccn2)CCCN(S(C)(=O)=O)C1)C(=O)N1C[C@H]2[C@@H]([C@H]1C(=O)NC(CC1CC1)C(=O)C(N)=O)C2(C)C` (some centres unmarked) [Compound 11014], the Ki is above 250 nM.
In the case of `CCCCC(NC(=O)[C@@H]1C[C@@H](OC(C)(C)C)CN1C(=O)[C@@H](NC(=O)N[C@H](CN(C)S(C)(=O)=O)C(C)(C)C)C1CCCCC1)C(=O)C(N)=O` (some centres unmarked) [Compound 11197], the Ki was at most 75 nM.
With `C=CCNC(=O)C(=O)C(CC1CC1)NC(=O)[C@@H]1[C@@H]2[C@H](CN1C(=O)[C@@H](NC(=O)N[C@H](CN(C)S(=O)(=O)c1ccccn1)C(C)(C)C)C1(C)CCCCC1)C2(C)C` (some centres unmarked) [Compound 11367], the Ki is at most 75 nM.
Consider `CCCCC(NC(=O)[C@@H]1[C@@H]2[C@H](CN1C(=O)[C@@H](NC(=O)N[C@H](CN(C)S(C)(=O)=O)C(C)(C)C)C(C)(C)C)C2(C)C)C(=O)C(=O)NC` (some centres unmarked) [Compound 11135], for which the Ki is at most 75 nM.
As for `C=CCNC(=O)C(=O)C(CCCC)NC(=O)[C@@H]1[C@@H]2[C@H](CN1C(=O)[C@@H](NC(=O)N[C@H](CN(C)S(=O)(=O)C(C)(C)C)C(C)(C)C)C1Cc3ccccc3C1)C2(C)C` (some centres unmarked) [Compound 11247], the Ki was at most 75 nM.
Take `C=CCNC(=O)C(=O)C(CC1CCC1)NC(=O)[C@@H]1[C@@H]2[C@H](CN1C(=O)[C@@H](NC(=O)N[C@H](CN(C)S(=O)(=O)c1cccs1)C(C)(C)C)C1(C)CCCCC1)C2(C)C` (some centres unmarked) [Compound 11148]: the Ki is at most 75 nM.
For the compound `C=CCNC(=O)C(=O)C(CC1CC1)NC(=O)[C@@H]1[C@@H]2[C@H](CN1C(=O)[C@@H](NC(=O)N[C@H](CN(C)S(=O)(=O)CC)C(C)(C)C)C1(C)CCCCC1)C2(C)C` (some centres unmarked) [Compound 11318], the Ki is at most 75 nM.
The same measure, in the same setting: then `C#CCNC(=O)C(=O)C(CCCC)NC(=O)[C@@H]1[C@@H]2[C@H](CN1C(=O)[C@@H](NC(=O)N[C@H](CN(C)S(C)(=O)=O)C(C)(C)C)C1(C)CCCCC1)C2(C)C` (some centres unmarked) [Compound 11299], with at most 75 nM.
Regarding `C#CCCC(NC(=O)[C@@H]1[C@@H]2[C@H](CN1C(=O)[C@@H](NC(=O)N[C@H](CN(C)S(C)(=O)=O)C(C)(C)C)C(C)(C)C)C2(C)C)C(=O)C(=O)NCC=C` (some centres unmarked) [Compound 11128], the Ki is at most 75 nM.
As to `C=CCNC(=O)C(=O)C(CCC(F)(F)F)NC(=O)[C@@H]1[C@@H]2[C@H](CN1C(=O)[C@@H](NC(=O)N[C@H](CN(C)S(C)(=O)=O)C(C)(C)C)C1(C)CCCCC1)C2(C)C` (some centres unmarked) [Compound 11256], the Ki is at most 75 nM.
As to `CN(C[C@@H](NC(=O)N[C@H](C(=O)N1C[C@H]2[C@@H]([C@H]1C(=O)NC(CC1CCC1)C(=O)C(N)=O)C2(C)C)C1CCCC1)C(C)(C)C)S(=O)(=O)c1cccs1` (some centres unmarked) [Compound 11231], the Ki was at most 75 nM.
On the same count and under the same terms, then `C=CCNC(=O)C(=O)C(CCCC)NC(=O)[C@@H]1[C@@H]2[C@H](CN1C(=O)[C@@H](NC(=O)N[C@H](CN(CCC(C)(C)C)S(C)(=O)=O)C(C)(C)C)C(C)(C)C)C2(C)C` (some centres unmarked) [Compound 11172], with at most 75 nM; and `CC(C)[C@H](NC(=O)N[C@H](C(=O)N1C[C@H]2[C@@H]([C@H]1C(=O)NC(CC1CC1)C(=O)C(N)=O)C2(C)C)C(C)(C)C)C(=O)N(C)S(=O)(=O)c1ccccc1` (some centres unmarked) [Compound 11045], with at most 75 nM; and `CN(C[C@H](CC(C)(C)C)NC(=O)N[C@H](C(=O)N1C[C@H]2[C@@H]([C@H]1C(=O)NC(CC1CCC1)C(=O)C(N)=O)C2(C)C)C(C)(C)C)S(=O)(=O)c1cccs1` (some centres unmarked) [Compound 11131], with at most 75 nM.
Turning to `C=CCNC(=O)C(=O)C(CC1CC1)NC(=O)[C@@H]1[C@@H]2[C@H](CN1C(=O)[C@@H](NC(=O)N[C@H](CN(C)S(=O)(=O)c1ccccc1)C(C)C)C1CCCCC1)C2(C)C` (some centres unmarked) [Compound 11047], the Ki is at most 75 nM.
For the compound `CCCCC(NC(=O)[C@@H]1[C@@H]2[C@H](CN1C(=O)[C@@H](NC(=O)N[C@H](CN(C)S(C)(=O)=O)C(C)(C)C)C(C)(C)C)C2(C)C)C(=O)C(=O)NCCOC` (some centres unmarked) [Compound 11264], the Ki is at most 75 nM.
In the case of `C=CCNC(=O)C(=O)C(CCC)NC(=O)[C@@H]1[C@@H]2[C@H](CN1C(=O)[C@@H](NC(=O)N[C@H](CN(C)S(=O)(=O)c1ccccn1)C(C)(C)C)C1Cc3ccccc3C1)C2(C)C` (some centres unmarked) [Compound 11374], the Ki is at most 75 nM.
On the same count and under the same terms, the figure for `C=CCNC(=O)C(=O)C(CC1CCC1)NC(=O)[C@@H]1[C@@H]2[C@H](CN1C(=O)[C@@H](NC(=O)N[C@H](CN(CC1CC1)S(=O)(=O)c1cccs1)C(C)(C)C)C(C)(C)C)C2(C)C` (some centres unmarked) [Compound 11243] is 75 to 250 nM; for `C#CCCC(NC(=O)[C@@H]1[C@@H]2[C@H](CN1C(=O)[C@@H](NC(=O)N[C@H](CN(C)S(=O)(=O)c1ccccn1)C(C)(C)C)C1CCCCC1)C2(C)C)C(=O)C(=O)NCC=C` (some centres unmarked) [Compound 11278] it is at most 75 nM.
As to `CCCCC(NC(=O)[C@@H]1[C@@H]2[C@H](CN1C(=O)[C@@H](NC(=O)N[C@H](CN(C)S(=O)(=O)c1cccs1)C(C)(C)C)C1CCCC1)C2(C)C)C(=O)C(N)=O` (some centres unmarked) [Compound 11227], the Ki is at most 75 nM.
`C=CCNC(=O)C(=O)C(CCC)NC(=O)[C@@H]1C[C@@H](Cl)CN1C(=O)[C@@H](NC(=O)N[C@H](CN(C)S(C)(=O)=O)C(C)(C)C)C1CCCCC1` (some centres unmarked) [Compound 11163]: the Ki was at most 75 nM.

Still in this test, the particulars now being: Table 3, range.
For the compound `CC(C)[C@@H](CNS(=O)(=O)c1ccccc1)NC(=O)N[C@H](C(=O)N1C[C@H]2[C@@H]([C@H]1C(=O)NC(CC1CCC1)C(=O)C(N)=O)C2(C)C)C(C)(C)C` (some centres unmarked) [Compound 12001], the Ki was at most 75 nM.

The test is the same for the next values; noted with them: Table 4, range.
For `CC(=O)N(C)C[C@@H](NC(=O)N[C@H](C(=O)N1C[C@H]2[C@@H]([C@H]1C(=O)NC(CC1CC1)C(=O)C(N)=O)C2(C)C)C(C)(C)C)C(C)(C)C` (some centres unmarked) [Compound 13011], the inhibition constant (Ki) is at most 75 nM.
Regarding `C=CCNC(=O)C(=O)C(CC1CCC1)NC(=O)[C@@H]1[C@@H]2[C@H](CN1C(=O)[C@@H](NC(=O)N[C@H](CN(C)C(C)=O)C(C)(C)C)C(C)(C)C)C2(C)C` (some centres unmarked) [Compound 13012], the Ki was in the range of 75 to 250 nM.
Take `CN(C[C@@H](NC(=O)N[C@H](C(=O)N1C[C@H]2[C@@H]([C@H]1C(=O)NC(CC1CC1)C(=O)C(N)=O)C2(C)C)C(C)(C)C)C(C)(C)C)C(=O)c1ccccc1` (some centres unmarked) [Compound 13025]: the Ki is at most 75 nM.

The test is the same for the next values; noted with them: Table 5, range.
`C=CCNC(=O)C(=O)C(CC1CC1)NC(=O)[C@@H]1[C@@H]2[C@H](CN1C(=O)[C@@H](NC(=O)N[C@H](CNC(=O)OCC)C(C)C)C(C)(C)C)C2(C)C` (some centres unmarked) [Compound 14023]: the Ki lay in the range of 75 to 250 nM.
Still for that read-out and setting: then `COC(=O)NC[C@@H](NC(=O)N[C@H](C(=O)N1C[C@H]2[C@@H]([C@H]1C(=O)NC(CC1CCC1)C(=O)C(N)=O)C2(C)C)C(C)(C)C)C(C)C` (some centres unmarked) [Compound 14010], with at most 75 nM.

The same test, now with this note: Table 5A, range.
In the case of `CCCCC(NC(=O)[C@@H]1[C@@H]2[C@H](CN1C(=O)[C@@H](NC(=O)N[C@H](CN(C)S(=O)(=O)CC)C1(C)CCCCC1)C1Cc3ccccc3C1)C2(C)C)C(=O)C(=O)NCC` (some centres unmarked) [Compound 11423], the Ki was at most 75 nM.

The test is the same for the next values; noted with them: Table 6.
With `CN(C[C@@H](NC(=O)N[C@H](C(=O)N1C[C@H]2[C@@H]([C@H]1C(=O)NC(CC1CCC1)C(=O)C(N)=O)C2(C)C)C(C)(C)C)C(C)(C)C)S(=O)(=O)c1ccccc1` (some centres unmarked) [drawing 51], the Ki came out at 5 nM.
Take `C=CCNC(=O)C(=O)C(CC1CC1)NC(=O)[C@@H]1[C@@H]2[C@H](CN1C(=O)[C@@H](NC(=O)N[C@H](CN(C)S(=O)(=O)N(C)C)C(C)(C)C)C1Cc3ccccc3C1)C2(C)C` (some centres unmarked) [drawing 61]: the Ki amounted to 12 nM.
Regarding `CCN(C[C@@H](NC(=O)N[C@H](C(=O)N1C[C@H]2[C@@H]([C@H]1C(=O)NC(CC1CCC1)C(=O)C(N)=O)C2(C)C)C(C)(C)C)C(C)(C)C)S(=O)(=O)c1cccs1` (some centres unmarked) [drawing 60], the Ki came out at 9 nM.
